Test results as given in ChEMBL document CHEMBL1124552 (J Med Chem, 1989).

Assay: Average half life period was determined
Format: ADME

O=[P@@]1(N(CCCl)CCCl)N[C@@H](O)CCO1.O=[P@@]1(N(CCCl)CCCl)N[C@H](O)CCO1
Average half life: 59 min
